Data: ChEMBL document CHEMBL2177053, “Current landscape of phosphodiesterase 10A (PDE10A) inhibition” (J Med Chem, 2012)
Values belong to the compound of their own block, whether it stands above or below them.

Amino acid sequences for entries named in this document (tags omitted). A change or cut given only in a name is not applied to a line headed by its entry.
UniProt Q9Y233: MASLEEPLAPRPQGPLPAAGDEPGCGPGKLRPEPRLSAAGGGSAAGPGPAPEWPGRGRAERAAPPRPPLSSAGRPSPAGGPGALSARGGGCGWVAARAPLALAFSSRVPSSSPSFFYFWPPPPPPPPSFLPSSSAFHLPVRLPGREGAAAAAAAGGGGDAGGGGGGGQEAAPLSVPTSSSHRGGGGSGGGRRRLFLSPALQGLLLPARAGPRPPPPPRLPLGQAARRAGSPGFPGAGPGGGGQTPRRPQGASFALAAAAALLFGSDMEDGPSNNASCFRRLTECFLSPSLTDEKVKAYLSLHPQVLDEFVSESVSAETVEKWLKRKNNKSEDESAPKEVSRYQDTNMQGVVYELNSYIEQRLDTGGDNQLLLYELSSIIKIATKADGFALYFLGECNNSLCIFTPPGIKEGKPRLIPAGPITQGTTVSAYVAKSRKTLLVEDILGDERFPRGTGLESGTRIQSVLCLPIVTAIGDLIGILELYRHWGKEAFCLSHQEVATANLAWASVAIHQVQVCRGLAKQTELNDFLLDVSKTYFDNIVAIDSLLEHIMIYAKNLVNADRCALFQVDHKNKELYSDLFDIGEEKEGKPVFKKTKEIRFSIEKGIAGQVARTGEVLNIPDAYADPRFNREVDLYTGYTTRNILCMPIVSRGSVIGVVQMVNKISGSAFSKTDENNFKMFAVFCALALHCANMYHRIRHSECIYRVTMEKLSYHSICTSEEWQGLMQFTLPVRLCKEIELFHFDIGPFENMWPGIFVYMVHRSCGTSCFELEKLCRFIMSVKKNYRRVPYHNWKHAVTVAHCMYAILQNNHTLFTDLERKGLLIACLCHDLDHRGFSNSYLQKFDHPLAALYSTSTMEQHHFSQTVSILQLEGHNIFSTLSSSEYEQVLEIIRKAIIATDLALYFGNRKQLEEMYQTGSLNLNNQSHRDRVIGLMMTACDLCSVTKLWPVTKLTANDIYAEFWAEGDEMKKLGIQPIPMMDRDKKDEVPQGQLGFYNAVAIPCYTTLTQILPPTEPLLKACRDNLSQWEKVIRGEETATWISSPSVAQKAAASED

Columns and labels:
[1] = system: Mus musculus; test: Antipsychotic activity in NMRI mouse assessed as inhibition of phencyclidine-induced hyperlocomotion at 5 mg/kg, sc administered 60 mins prior to phencyclidine challenge measured up to 60 mins relative to vehicle-treated control; type: functional; conditions: route subcutaneous
[2] = Selectivity ratio of IC50 for PDE1B1 to IC50 for rat recombinant PDE10A2
[3] = target: cAMP and cAMP-inhibited cGMP 3',5'-cyclic phosphodiesterase 10A (Homo sapiens, UniProt Q9Y233); test: Inhibition of PDE10A

SMILES: Cc1ncc(C)n2nc(CCc3nc(-c4ccccc4)cn3C)nc12
inhibition in vivo at 5 mg/kg [1]: 99%

Ratio IC50 [2]: 100
SMILES: COCCc1ccc(-c2c(C)nc3c(N4CCOCC4)ccnn23)cn1 [JNJ-42396302]

SMILES: COc1ccc(Cc2nccc3cc(OC)c(OC)cc23)cc1OC [PAPAVERINE]
IC50 [3]: 40 nM
